## Measured affinities in a library of Ab-14 light chain variants

All variants were tested on one target, the spike HR2 peptide PDVDLGDISGINAS (SARS-CoV-2).

The variants keep the heavy chain, the linker and the frameworks of Ab-14 (scFv order VH, three GGGGS repeats, VL).
VH: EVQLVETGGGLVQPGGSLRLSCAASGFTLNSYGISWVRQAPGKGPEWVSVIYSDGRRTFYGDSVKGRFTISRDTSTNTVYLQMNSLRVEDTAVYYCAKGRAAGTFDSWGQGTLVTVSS
VL: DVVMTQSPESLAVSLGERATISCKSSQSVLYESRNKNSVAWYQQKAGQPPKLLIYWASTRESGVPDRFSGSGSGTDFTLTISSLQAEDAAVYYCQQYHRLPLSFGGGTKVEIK

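Phage display of a naive human antibody library on the peptide gave the parent. This is the validation round: designs drawn from the data on random variants, tested in the same kind of assay. Several design methods are mixed in this list. AlphaSeq pools MATa yeast showing the antibodies with MATalpha yeast showing the peptide. Mating (16 h, 30 °C) was followed by selection of diploids and sequencing of their barcodes. A regression on co-assayed BCL2-family reference pairs converts the normalised counts of each replicate to an apparent Kd. The assay was run in six technical replicates.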

The parent's light chain CDRs are KSSQSVLYESRNKNSVA, WASTRES, QQYHRLPLS; each variant's own CDRs replace them letter for letter.
Values are log10 of the apparent Kd in nM; lower means stronger binding.
Replicates are averaged; those with no signal do not enter the mean.
Where no diploid with the target was found in any replicate, the entry reads "nd": below detection, most likely a poor binder, though not proof of it.

{"CDR-L1": "KLYQSGLYESRNKNSVA", "CDR-L2": "EASTRES", "CDR-L3": "QQYHRLPLS", "mean log10 Kd (nM)": "-0.32", "detected": "6 of 6", "empty controls": "2 of 18"}
{"CDR-L1": "KSSQSVLYESHNKNSVA", "CDR-L2": "WASWRES", "CDR-L3": "QQYHRLPLS", "mean log10 Kd (nM)": "nd", "detected": "0 of 6", "empty controls": "0 of 18"}
{"CDR-L1": "KLSQSFLYEQRNKNSVA", "CDR-L2": "EASTRES", "CDR-L3": "QQYHRLPLS", "mean log10 Kd (nM)": "-0.25", "detected": "6 of 6", "empty controls": "1 of 18"}
{"CDR-L1": "NISYLQGEPTNSVNNVA", "CDR-L2": "QTSKRAH", "CDR-L3": "QQYQHLPLC", "mean log10 Kd (nM)": "0.89", "detected": "6 of 6", "empty controls": "1 of 18"}
{"CDR-L1": "MIEIIQDGYMEMRSAVA", "CDR-L2": "DTSLVRM", "CDR-L3": "QQYYRLPLM", "mean log10 Kd (nM)": "1.46", "detected": "1 of 6", "empty controls": "0 of 18"}
{"CDR-L1": "LIMKFMSQEGSARNNIA", "CDR-L2": "GDTKLAQ", "CDR-L3": "QHYHRLPLS", "mean log10 Kd (nM)": "nd", "detected": "0 of 6", "empty controls": "0 of 18"}
{"CDR-L1": "KLSMITGHMSTVKNNVA", "CDR-L2": "EMETREN", "CDR-L3": "QQYNRLPLA", "mean log10 Kd (nM)": "0.18", "detected": "6 of 6", "empty controls": "2 of 18"}
{"CDR-L1": "KSSQSVLYESNNKNSVA", "CDR-L2": "WAATRES", "CDR-L3": "QQYPRLPLD", "mean log10 Kd (nM)": "2.59", "detected": "4 of 6", "empty controls": "0 of 18"}
{"CDR-L1": "KSSPSVLYESHNKNSVA", "CDR-L2": "DASTRMS", "CDR-L3": "QQYHRLPLS", "mean log10 Kd (nM)": "-0.30", "detected": "6 of 6", "empty controls": "3 of 18"}
{"CDR-L1": "RLQADDNGYEGMRNNVA", "CDR-L2": "DGAMVRM", "CDR-L3": "QQYARLPLM", "mean log10 Kd (nM)": "0.68", "detected": "6 of 6", "empty controls": "0 of 18"}
{"CDR-L1": "KSSPSVWYESENKNSVA", "CDR-L2": "NASTRMS", "CDR-L3": "QQYHRLPLS", "mean log10 Kd (nM)": "0.50", "detected": "6 of 6", "empty controls": "0 of 18"}
{"CDR-L1": "KLSQSCLYESRNKNSVA", "CDR-L2": "NASTRES", "CDR-L3": "QQYHRLPLS", "mean log10 Kd (nM)": "0.20", "detected": "6 of 6", "empty controls": "4 of 18"}
{"CDR-L1": "KYEQSVLYESRNCNSVA", "CDR-L2": "FASTRES", "CDR-L3": "QQYHRLPLS", "mean log10 Kd (nM)": "2.63", "detected": "6 of 6", "empty controls": "2 of 18"}
{"CDR-L1": "YLSQSVLYESRNKNSVA", "CDR-L2": "NASTREA", "CDR-L3": "QQYHRLPLM", "mean log10 Kd (nM)": "-0.13", "detected": "6 of 6", "empty controls": "0 of 18"}
{"CDR-L1": "KLSQSVMYESRNKNSVA", "CDR-L2": "GASTRES", "CDR-L3": "QQYHRLPLS", "mean log10 Kd (nM)": "0.34", "detected": "6 of 6", "empty controls": "0 of 18"}
{"CDR-L1": "KSSQDVGYESRNKNSVA", "CDR-L2": "WASTRES", "CDR-L3": "QQYHRLMLS", "mean log10 Kd (nM)": "0.94", "detected": "3 of 6", "empty controls": "1 of 18"}
{"CDR-L1": "KISQSQLYEDRNHKSVA", "CDR-L2": "NASTRCS", "CDR-L3": "QQYHRLPLS", "mean log10 Kd (nM)": "0.11", "detected": "6 of 6", "empty controls": "3 of 18"}
{"CDR-L1": "LISGVWDYGSRNYNSVA", "CDR-L2": "QTSTREE", "CDR-L3": "QQYDRLPLE", "mean log10 Kd (nM)": "1.17", "detected": "6 of 6", "empty controls": "0 of 18"}
{"CDR-L1": "TISGLILMPSRNKNSVA", "CDR-L2": "NTSTRYQ", "CDR-L3": "QQYHRLPLS", "mean log10 Kd (nM)": "0.54", "detected": "6 of 6", "empty controls": "0 of 18"}
{"CDR-L1": "KLQQSQEYESRNKNSVA", "CDR-L2": "NASTRED", "CDR-L3": "QQYHRLPLS", "mean log10 Kd (nM)": "-0.11", "detected": "6 of 6", "empty controls": "0 of 18"}
{"CDR-L1": "KMSNSVLHECRNKNSVA", "CDR-L2": "EASTREA", "CDR-L3": "QQYHRLPLS", "mean log10 Kd (nM)": "0.33", "detected": "6 of 6", "empty controls": "1 of 18"}
{"CDR-L1": "DMTGQFNGASNIQNSVA", "CDR-L2": "HGVEKID", "CDR-L3": "QQYVRLPLA", "mean log10 Kd (nM)": "0.07", "detected": "6 of 6", "empty controls": "3 of 18"}
{"CDR-L1": "KSSWSFLYESRNKNSVA", "CDR-L2": "DASTRES", "CDR-L3": "QQYHRLPLS", "mean log10 Kd (nM)": "1.08", "detected": "6 of 6", "empty controls": "0 of 18"}
{"CDR-L1": "KLSWSVVYESRNKNSVA", "CDR-L2": "GASTRES", "CDR-L3": "QTYHRLPLS", "mean log10 Kd (nM)": "0.04", "detected": "6 of 6", "empty controls": "2 of 18"}
{"CDR-L1": "KSSWSVPYESRNKNSVA", "CDR-L2": "DASTRES", "CDR-L3": "QQYHRLPLS", "mean log10 Kd (nM)": "-0.59", "detected": "6 of 6", "empty controls": "0 of 18"}
{"CDR-L1": "KVSEEVLMGDRNKNSVA", "CDR-L2": "KASTRES", "CDR-L3": "QQYHRLPLS", "mean log10 Kd (nM)": "-0.01", "detected": "6 of 6", "empty controls": "0 of 18"}
{"CDR-L1": "KSPQSVLYESRNKNSVA", "CDR-L2": "SASTRED", "CDR-L3": "QSYHRLPLS", "mean log10 Kd (nM)": "0.26", "detected": "6 of 6", "empty controls": "0 of 18"}
{"CDR-L1": "KISMSYRYESQQKNSIA", "CDR-L2": "EMSRREN", "CDR-L3": "QQYHRLPLS", "mean log10 Kd (nM)": "0.15", "detected": "6 of 6", "empty controls": "0 of 18"}
{"CDR-L1": "MLSQMWGVGSKVSNSVA", "CDR-L2": "QASMRFN", "CDR-L3": "QQYDRLPLI", "mean log10 Kd (nM)": "1.54", "detected": "6 of 6", "empty controls": "0 of 18"}
{"CDR-L1": "KSSQAVLYESRNKNSVA", "CDR-L2": "WASTRES", "CDR-L3": "FQYHRLPLS", "mean log10 Kd (nM)": "2.57", "detected": "1 of 6", "empty controls": "0 of 18"}
{"CDR-L1": "KSSLSVLYESRNKNSVA", "CDR-L2": "WASTRES", "CDR-L3": "QQYNRLPLS", "mean log10 Kd (nM)": "2.94", "detected": "1 of 6", "empty controls": "1 of 18"}
{"CDR-L1": "KVEQSVMLESRWKNSVA", "CDR-L2": "NASTRMS", "CDR-L3": "QQYHRLPLS", "mean log10 Kd (nM)": "0.15", "detected": "6 of 6", "empty controls": "1 of 18"}

The first 2 variants above that were never detected:

CDR-L1	CDR-L2	CDR-L3	mean log10 Kd (nM)	detected	empty controls
KSSQSVLYESHNKNSVA	WASWRES	QQYHRLPLS	nd	0 of 6	0 of 18
LIMKFMSQEGSARNNIA	GDTKLAQ	QHYHRLPLS	nd	0 of 6	0 of 18

Three control strains display no target. For all light chain designs, 4% of the pairings with them gave a signal, with a median of 2.64 and one signal in twenty below 1.59, so weak values seen in few replicates may be background. For each scFv, signals with the empty controls are counted beside the result.
The range of this assay differs from that of the first round, and the authors advise against merging the two.
The authors' rule: three or more of the six replicates give a measured affinity, fewer mean a poor binder.

Data: MIT Lincoln Laboratory AlphaSeq set, Li et al. 2023, doi:10.1038/s41467-023-39022-2, as distributed in FLAb.